Legend:
[1] = test system: participants with IPF; experiment: Phase 2 IPF cohort: safety and blood pressure monitoring
Experimental: (§1) A total of 278 participants with IPF were randomized and 276 participants were treated as of […] analyses data cut-off (4 Aug. 2022). Male and female participants ≥40 years of age with IPF and percent predicted forced vital capacity (ppFVC) >40% and percent predicted DLCO (ppDLCO) >25%; diagnosed within 7 years of screening; having a centrally-read chest HRCT obtained at screening that was consistent with UIP or probable UIP, or having a lung biopsy consistent with UIP were eligible to enter the study. The mean baseline ppFVC for all subjects was 76.5%. In the primary IPF cohort, participants were randomized (1:1:1) to receive 30 mg or 60 mg Compound A or placebo (PBO) twice daily for 26 weeks. Participants were stratified by standard of care (SoC) IPF therapy (pirfenidone versus nintedanib versus none) and region (Japan versus Rest of World) at randomization.
Blood Pressure Monitoring: Based on the pre-specified low BP safety monitoring and criteria specified in the protocol, those on 60 mg had the lowest frequencies of orthostatic intolerance, orthostatic hypotension, or pre-specified symptomatic or asymptomatic low BP criteria. In the overall population, the following orthostatic intolerance, orthostatic hypotension, or the symptomatic or asymptomatic low BP events were observed: • Orthostatic intolerance observed in 19 (6.9%) participants. • PBO: 7 (7.6%); 30 mg: 10 (11.0%); 60 mg: 2 (2.2%) • Orthostatic hypotension observed in asymptomatic low BP in 54 (19.6%) participants. Note that orthostatic hypotension is defined as a drop in SBP of ≥20 mmHg or DBP of ≥10 mmHg with an assumption of an upright posture from either supine or seated to upright position. • PBO: 19 (20.7%); 30 mg: 21 (23.1%); 60 mg: 14 (15.1%) • Orthostatic hypotension observed in symptomatic low BP in 21 (7.5%) participants. • PBO: 7 (7.6%); 30 mg: 9 (9.9%), 60 mg: 5 (5.4%) • Asymptomatic low blood pressure observed in 59 (21.4%) of participants. • PBO: 20 (21.7%); 30 mg: 22 (24.2%); 60 mg: 17 (18.3%) • Symptomatic low blood pressure observed in 27 (9.8%) participants. • PBO: 10 (10.9%); 30 mg: 11 (12.1%); 60 mg: 6 (6.5%) • Dose reductions to Compound A 10 mg BID vs. matching PBO were implemented due to protocol-defined low BP criteria (shown below) in 18 (6.5%) participants and approximately evenly distributed across arms. • PBO: 5 (5.4%); 30 mg: 7 (7.7%); 60 mg: 6 (6.5%)
Patient experiences any of the following, confirmed by retest within 15 minutes: • Seated systolic blood pressure <85 mmHg • Seated diastolic blood pressure <55 mmHg • Orthostatic hypotension […]

[2] = test system: participants with IPF; experiment: Phase 2 IPF cohort: efficacy (FVC, ppFVC), 26 weeks
Experimental: as §1
The primary objective of the study was to determine the rate of change in ppFVC from baseline to Week 26. The primary objective was evaluated with a two estimand framework to handle the intercurrent event of dose reduction to 10 mg BID or matching PBO when pre-specified low BP criteria is met. The primary estimand is adopted to estimate treatment effect when dose reduction is implemented. The supplementary estimand is adopted to estimate the effect of treatment without dose reduction.
Analysis Strategy: The primary estimand was to evaluate the efficacy of Compound A at 30 mg or 60 mg twice daily, compared to PBO in IPF participants who met the enrollment criteria, with or without use of SoC. The rate of decline in ppFVC (%) from baseline to Week 26 was compared using the difference between each dose and PBO as a population level summary regardless of dose reduction or treatment discontinuation for any reason (treatment policy strategy).
Analysis Strategy: The supplementary estimand for the primary objective is to evaluate the efficacy of Compound A at 30 mg or 60 mg twice daily without dose reduction, compared to the PBO in IPF subjects who met the enrollment criteria, with or without use of SoC. […]

Structure (SMILES): CCCN(C)C(=O)OCc1c(-c2ccc(O[C@H]3CCC[C@H](C(=O)O)C3)c(C)n2)nnn1C
- Clinical consequence of Day 1 postdose SBP reductions ([1]; 30 mg and 60 mg, Day 1): not associated with any clinical sequelae and were self-limited in nature
- Asymptomatic low blood pressure ([1]; 60 mg BID): 17 (18.3) n (%)
- Risk of orthostatic intolerance, orthostatic hypotension, orthostatic tachycardia, or symptomatic or asymptomatic low BP vs PBO ([1]; 60 mg BID): not associated with any increased risk
- Frequencies of orthostatic intolerance, orthostatic hypotension, or low BP criteria ([1]; 60 mg BID, compared with PBO and 30 mg): lowest frequencies
- Efficacy vs PBO ([2]; 30 mg BID, overall population, data not shown): did not demonstrate efficacy compared to PBO
- Treatment differences in rate of change in ppFVC with and without background antifibrotic ([2]; IPF cohort, FIGS. 11A and 11B): consistent between both groups
- Impact on FVC compared with PBO ([2]; alone or on background nintedanib or pirfenidone): favorable impact on FVC compared with PBO

Reference: patent US20260382583A1, “LPA1 ANTAGONISTS FOR TREATING INTERSTITIAL LUNG DISEASE” (published 2026)
